The record followed here is patent US8629135B2, “Pharmaceutical compositions comprising RET inhibitors and methods for the treatment of cancer” (Queen's University at Kingston, priority 2008, dated 2014).

One series has as its system BxPc3 tumours. As to conditions: BxPc3 xenograft study.
A further series deals with MiaPaca-2 tumours. The experiment in a line: Xenograft study, subcutaneous MiaPaca-2 tumours. As to conditions: MiaPaca-2 xenograft study.

As for `CN(C)CCC=C1c2ccccc2C=Cc2ccccc21.Cl` [SW-01, Cyclobenzaprine Hydrochloride], the animal weight result with BxPc3 tumours and with MiaPaca-2 tumours was “animal weight between the groups was maintained” in each case.
